# Ab-14 light chain CDR variants: yeast mating affinities

The target is the same throughout: PDVDLGDISGINAS, from the HR2 region of SARS-CoV-2 spike.

Each scFv is VH, the linker GGGGSGGGGSGGGGS, VL, as in the parent Ab-14, and differs from it in the CDRs of the light chain only.
VH: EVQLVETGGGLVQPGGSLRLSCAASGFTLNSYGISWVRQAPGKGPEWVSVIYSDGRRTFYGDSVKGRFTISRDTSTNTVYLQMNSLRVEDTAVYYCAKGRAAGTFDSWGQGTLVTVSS
VL: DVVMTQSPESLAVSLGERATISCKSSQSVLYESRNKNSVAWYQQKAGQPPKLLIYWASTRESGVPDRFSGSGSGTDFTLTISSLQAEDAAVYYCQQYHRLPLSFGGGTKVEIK

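The starting antibody came from a phage panning campaign against this peptide. This is the validation round: designs drawn from the data on random variants, tested in the same kind of assay. Their group label is 14L_En_HC (En: ensemble of fine-tuned language models; HC: hill climbing; a sequence that several methods proposed may carry one label only). AlphaSeq pools MATa yeast showing the antibodies with MATalpha yeast showing the peptide. Pairs that bind mate more often; barcode pairs of the diploids are counted by sequencing. Read counts were normalised to the haploid input and turned into Kd by a linear fit to BCL2-family pairs of known affinity, for each replicate. The assay was run in six technical replicates.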

The parent's light chain CDRs are KSSQSVLYESRNKNSVA, WASTRES, QQYHRLPLS; each variant's own CDRs replace them letter for letter.
The read-out is the apparent dissociation constant on a log10 scale (nM): the lower, the stronger.
A pair that was not seen in that replicate is written "nd"; this usually means weak binding, but a binder can also be missed.

CDR-L1	CDR-L2	CDR-L3	log10 Kd, replicates	empty controls
KISQMVAYESTWHGAIA	QTSEREE	QQYHRLPFS	1.04 / 1.18 / 0.59 / 0.91 / 0.90 / 0.34	0/18
KFSQMANYESTHVNAVA	QMSTREE	QQYHRLPLS	0.22 / 0.19 / 0.11 / 0.08 / 0.17 / 0.35	3/18 (2.37)
KLSMVTNQEHKVKNSIA	EMVTREK	QQYDRLPLV	0.83 / 0.89 / 0.54 / 0.64 / 0.75 / 0.82	1/18 (3.49)
MFSQGVMVGWLTRNSVA	NSSTRES	QQYERLPLS	0.69 / 0.50 / 0.51 / 0.83 / 0.29 / 0.75	0/18
NFSQMVLTGRTLKNSVA	HASTREE	QQYHRLPLI	1.47 / 1.62 / 1.43 / 1.72 / 2.00 / 1.52	1/18 (3.15)
TLSQSMDMTSRNVNSVA	DLTNRGN	QQYHRLPLS	0.43 / 0.46 / 0.18 / 0.05 / 0.38 / 0.52	1/18 (1.56)
KISFQYRYEQLAKNNIA	EVVTRLK	QQYHRLPLS	1.16 / 1.65 / 0.93 / 0.96 / 1.68 / 1.60	2/18 (2.21)
HISMSMNYLSRNKNSIA	EESTRED	QQYFRLPLS	-0.04 / -0.33 / -0.40 / -0.44 / 0.04 / 0.04	0/18
MMSYGWLYGSRNKRNVA	DQETRES	QQYDRLPLS	0.53 / nd / 2.02 / 1.37 / nd / 0.45	0/18
KLRQVTGYEMYNKDSVA	QTSTRVS	QDYHRLPLS	0.72 / 0.43 / 0.61 / 0.76 / 0.18 / 0.78	1/18 (4.24)
KLYQSVGTMSHDKQSIA	DMERRED	QQYHRLPLS	nd / nd / nd / nd / nd / nd	0/18
TISQMLLMQTSHKNSVA	GEETRYN	QQYHHLPLS	0.83 / 1.54 / 1.12 / 0.93 / 0.84 / 1.23	2/18 (2.12)
MSYGGDMLESATRNSVA	NAETRED	QDYHRLPLS	1.62 / 1.58 / 1.22 / 1.71 / 1.06 / 1.46	0/18
TLSQSMDMTSRNVNSVA	DLQTRGN	QQYHRLPLS	0.68 / 0.76 / 0.27 / 0.98 / 0.32 / 0.75	1/18 (2.41)
KISQLVNFLGKNKNSVA	QMSTREI	QQYDRLPLS	1.41 / 0.83 / 0.95 / 0.94 / 0.89 / 0.99	2/18 (3.69)
TISQMFLGESRNRNSVA	QASLRES	QSYDRLPLS	0.55 / 0.71 / 0.61 / 0.35 / 0.29 / 0.69	0/18
NISSSMYFQSRNKNNIA	EMSTRER	QHYHRLPLS	1.38 / 0.56 / 0.48 / 0.24 / 0.57 / 0.16	1/18 (2.02)
KLSMSYRYETEEKNSIA	ELVTRMS	QQYHRLPLS	2.73 / 2.50 / 2.61 / 1.93 / 1.37 / 2.90	0/18
IITQVDAYLSRNKNSIA	DQSTRGS	QQYDRLPLS	0.68 / 0.46 / 0.35 / 0.28 / 0.26 / 0.63	0/18
NFSQMVLMGSTLKNSVA	HASTREE	QQYHRLPLI	0.98 / 0.96 / 0.70 / 0.96 / 0.82 / 1.34	2/18 (2.80)
ILSQMLLTAGNKHNSVA	QANNRED	QQYHRLPLS	0.86 / 0.98 / 1.04 / 1.47 / 1.64 / 1.42	0/18
KLSSFHNVESINKSNVA	EMVTRES	QQYDRLPLS	nd / 2.23 / 2.35 / nd / nd / nd	0/18
KLSILGLHESIDKKSIA	ERSTREN	QQYHRLPLS	-0.02 / 0.29 / -0.22 / -0.13 / -0.10 / 0.10	0/18
NISESMYFQSFNKNNIA	EMSTRER	QHYHRLPLS	1.05 / 0.87 / 0.66 / 0.92 / 0.71 / 1.15	0/18
MISDLTMYGSRNVNSVA	DLSTRGS	QQYERLPLS	0.45 / 0.79 / 0.16 / 0.42 / 0.28 / 0.46	0/18
HISQMVMYGSCAKNNVA	QVSTREE	QQYHRLPLS	1.38 / 1.27 / 1.11 / 0.93 / 1.54 / 1.45	2/18 (2.07)
NVGQLMDGESRNHNSVA	HQSTRED	QHYHRLPLS	-0.23 / -0.31 / -0.27 / -0.50 / -0.41 / -0.23	1/18 (2.33)
TISQTMLMENQFKNSVA	QASTRES	QCYDRLPLS	2.25 / 1.63 / nd / 1.82 / nd / 2.29	2/18 (1.92)
ILSDSVLTESRNKNSVA	DNSTRES	QCYDRLPLS	nd / nd / nd / nd / nd / nd	0/18
LISGVWDIGSRNYNSVA	QTSTRES	QQYDRLPLS	1.41 / 1.37 / 1.10 / 1.20 / 1.57 / 1.42	1/18 (3.18)
TVSQVHGMLSHEKNSVA	DMNTRGS	QQYDRLPLS	1.30 / 1.11 / 0.94 / 0.93 / 1.50 / 1.31	3/18 (3.01)
KSSQSFLYESRNKNSVA	GASTRES	QQYHRLTLS	0.12 / -0.24 / 0.08 / -0.17 / -0.29 / -0.12	1/18 (2.05)
TISQMFLGESRNRNSVA	QASTREY	QSYDRLPLS	1.04 / 0.62 / 0.65 / 0.69 / 0.74 / 1.67	2/18 (1.89)
MISGSVMQESRLKNSVA	QTTTRES	QQYDRLPLS	0.74 / 0.52 / 0.39 / 0.29 / 0.40 / 0.76	1/18 (2.57)
KISQAVNYLSRVMNNVA	DNSTRGS	QQYFRLPLS	0.06 / 0.49 / 0.22 / 0.42 / 0.73 / 0.28	1/18 (4.00)
HISYSMAHLSRNKNSVA	NQQTRES	QQYERLPLS	1.23 / 0.41 / 0.37 / 0.19 / 0.48 / 0.81	1/18 (4.15)
ILGDSVLTESRNKNSVA	DNSTRES	QQYDRLPLS	2.95 / nd / nd / nd / nd / 2.53	0/18
KLQQVTGYESYVRNSVA	QMSTRAE	QDYNRLPLS	0.53 / 0.43 / 0.77 / 0.38 / 0.20 / 0.44	0/18
KISQMYRYEQQNSSSIA	EANTRED	QSYHRLPLS	1.85 / 1.83 / 2.26 / 2.13 / 2.56 / 1.86	0/18
KISMMYRFEQTASNNIA	EMTMRAE	QSYHRLPLS	1.32 / 1.15 / 0.90 / 1.01 / 1.35 / 1.58	0/18
IISGSMLMESRNKNSVA	NAENREY	QHYDRLPLS	1.10 / 1.32 / nd / 0.65 / 0.39 / 1.66	0/18
KLRQVTGYESYVRNSVA	QMSTRAE	QDYHRLPLS	0.79 / 0.76 / 0.50 / 0.59 / 0.51 / 0.58	0/18
KISQMITYESTWHNAIA	QTSEREE	QQYHRLPLS	1.16 / nd / 0.87 / nd / 0.76 / 0.99	0/18
KLSMSYRYASQEKNSIA	EMSTREE	QSYHRLPLS	1.07 / 0.69 / 0.59 / 0.64 / 0.79 / 0.61	3/18 (2.67)
KISMTYRFESQASNSIA	EMTTREE	QSYHRLPLS	1.45 / 1.33 / 2.04 / 1.76 / 2.05 / 2.22	0/18
IISGVMLVESKHTNSVA	NAETREY	QHYDRLPLS	1.87 / 1.87 / 1.86 / 2.08 / 1.56 / 2.37	3/18 (3.19)
KISQMSTIESIVHNSVA	QTSTRES	QQYDRLPLS	1.97 / 0.75 / 0.57 / 0.84 / 1.08 / 1.64	0/18
KIGHGLTTESRQKNSVA	QTETRVS	QHYHRLPLS	0.74 / 1.15 / 1.23 / 0.98 / 0.96 / 1.09	3/18 (2.48)
KLSQFSRMESRNKNSVA	DNSTRES	QQYDRLPLS	nd / 2.99 / 2.31 / 2.90 / nd / 3.23	5/18 (2.69)
QLLMATLQGTYNRNSVA	HAETRND	QSYHRLPLS	1.36 / 1.63 / 2.60 / 1.69 / 1.91 / 1.77	0/18

The 7 strongest on average among those seen in every replicate, once more:

CDR-L1	CDR-L2	CDR-L3	log10 Kd, replicates	empty controls
NVGQLMDGESRNHNSVA	HQSTRED	QHYHRLPLS	-0.23 / -0.31 / -0.27 / -0.50 / -0.41 / -0.23	1/18 (2.33)
HISMSMNYLSRNKNSIA	EESTRED	QQYFRLPLS	-0.04 / -0.33 / -0.40 / -0.44 / 0.04 / 0.04	0/18
KSSQSFLYESRNKNSVA	GASTRES	QQYHRLTLS	0.12 / -0.24 / 0.08 / -0.17 / -0.29 / -0.12	1/18 (2.05)
KLSILGLHESIDKKSIA	ERSTREN	QQYHRLPLS	-0.02 / 0.29 / -0.22 / -0.13 / -0.10 / 0.10	0/18
KFSQMANYESTHVNAVA	QMSTREE	QQYHRLPLS	0.22 / 0.19 / 0.11 / 0.08 / 0.17 / 0.35	3/18 (2.37)
TLSQSMDMTSRNVNSVA	DLTNRGN	QQYHRLPLS	0.43 / 0.46 / 0.18 / 0.05 / 0.38 / 0.52	1/18 (1.56)
KISQAVNYLSRVMNNVA	DNSTRGS	QQYFRLPLS	0.06 / 0.49 / 0.22 / 0.42 / 0.73 / 0.28	1/18 (4.00)

Empty control strains, which show no peptide, gave a signal in 4% of pairings with all light chain designs; the median was 2.64 and 95% of these signals were weaker than 1.59. No background was subtracted. The control count says in how many pairings with the empty strains this scFv gave a signal, with their mean in brackets.
The authors averaged sequences with at least three values out of six and counted those with two or fewer as poor binders.
The parent sequence was in this pool as ten entries: three were never detected, three once, and four in most replicates, with averages from 0.34 to 2.37.
A sequence measured in both rounds can read differently, since the two assays cover different ranges.

From the AlphaSeq antibody data of Li et al. 2023 (doi:10.1038/s41467-023-39022-2), copy in the FLAb collection.